# AlphaSeq binding of Ab-95 light chain variants to a spike HR2 peptide

All variants were tested on one target, the spike HR2 peptide PDVDLGDISGINAS (SARS-CoV-2).

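The starting antibody came from a phage panning campaign against this peptide. The library (AAYL52) carries one to three amino acid substitutions per variant, with no insertions or deletions. AlphaSeq pools MATa yeast showing the antibodies with MATalpha yeast showing the peptide. After mating in shaken culture at 30 °C for 16 h, diploids were selected and their barcode pairs sequenced. Each replicate has its own calibration line, from reference interactions of the BCL2 family. The assay was run in three technical replicates.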

Ab-95 is the parent antibody, in scFv form: VH, then a (GGGGS)3 linker, then VL. The heavy chain is unchanged in all variants.
VH: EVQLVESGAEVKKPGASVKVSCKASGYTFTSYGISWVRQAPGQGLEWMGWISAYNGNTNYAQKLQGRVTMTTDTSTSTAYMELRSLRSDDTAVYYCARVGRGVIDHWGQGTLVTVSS
VL: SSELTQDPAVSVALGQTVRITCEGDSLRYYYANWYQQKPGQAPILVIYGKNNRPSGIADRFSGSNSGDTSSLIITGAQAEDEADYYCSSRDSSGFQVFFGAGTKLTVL

Variants are written as CDR1, CDR2 and CDR3 of the light chain (limits as in the source). Parent: EGDSLRYYYAN, GKNNRPS, SSRDSSGFQVF.
Affinities are written as log10 Kd with Kd in nM; a lower number is a better binder.
The mean shown is taken over the replicates in which the pair was detected.
"not detected" means that the variant was in the library but no mating with the target was seen in any replicate; the authors take this as a sign of poor binding, and no number exists.
For reference, the parent read 2.31 as the reference entry and 2.25 as a member of this library.
Empty control strains, which show no peptide, gave a signal in 28% of pairings with library AAYL52; the median was 3.91 and 95% of these signals were weaker than 2.90. No background was subtracted.

| log10 Kd (nM), mean | seen in | CDR-L1 | CDR-L2 | CDR-L3 |
|---|---|---|---|---|
| not detected | 0 of 3 | EGDSLRYYYAN | EKNNHPS | KSRDSSGFQVF |
| not detected | 0 of 3 | EGDSLRYYYAV | GKNNRPS | HSRQSSGFQVF |
| 1.89 | 3 of 3 | EGDSLRNYYAN | GKNNRPS | TSRDSSGFQKF |
| 3.73 | 3 of 3 | EGDSWRYYYAN | GKNNRPS | SSRDSSGFNVF |
| 4.52 | 3 of 3 | EGDSLRYYYAN | GKNNRYS | SSRLSSFFQVF |
| 3.48 | 1 of 3 | EGLSLRYYYAN | GKPNRPS | SSRDSSGFQVF |
| 3.98 | 1 of 3 | EGDSLRYYYAN | GKNNRKS | GSRDSSGFQVP |
| 4.09 | 2 of 3 | EGDSLRYYYAN | GKMNRPS | SSRDSVGFQLF |
| not detected | 0 of 3 | EGCSLRYYYAN | GKNNRPS | HSRDSSGFQVF |
| not detected | 0 of 3 | EGDSLIYYYIN | GKNNRPS | SSRLSSGFQVF |
| 3.46 | 3 of 3 | SGDSLRYYYAN | GKANRPS | SSRDSSQFQVF |
| 4.49 | 2 of 3 | EGDSLRYYYAI | GKNNRPS | SKRDLSGFQVF |
| 3.68 | 1 of 3 | EGDSLRYYYAN | GKNNRPY | SSRDSSGFGVF |
| 2.09 | 3 of 3 | EGDSYRYAYAN | GKNNIPS | SSRDSSGFQVF |
| 4.53 | 1 of 3 | EGDSWRAYYAN | GKNNRPS | SPRDSSGFQVF |
| 2.60 | 3 of 3 | ESDSLRYYYAN | GKNNRPS | SLRDSSGSQVF |
| not detected | 0 of 3 | EGDSLRYYYAN | GKIGRPS | SSRDSSGFQYF |
| 1.89 | 3 of 3 | GTDSLRYSYAN | GKNNRPS | SSRDSSGFQVF |
| 2.74 | 1 of 3 | EGDELRYYYAN | GKNNRPS | SSRDSNGFQVF |
| 3.33 | 2 of 3 | EGNSLRYYYAN | GKNVRKS | SSRDSSGFQVF |
| 3.83 | 1 of 3 | ERDSLRYYYAN | QKNNRPS | SSRDSSKFQVF |
| 3.79 | 3 of 3 | EGDSLIYYYAT | GKNNRPS | SSRDSSGFQWF |
| 3.98 | 1 of 3 | EGDSRRYYYAN | SKNNRPS | SSRDSSGFQWF |
| 3.39 | 3 of 3 | EGDSLRYYYAN | GKKNRPS | SSRDSSPFQMF |
| 4.30 | 2 of 3 | EGDSVRYYYAN | GKNNCPS | SSRDSSGFQDF |
| 3.80 | 3 of 3 | EGDSLRYYYKN | GKNNRPS | SSRASSGFQVS |
| 4.33 | 1 of 3 | EGDSYRYFYAN | GKNNRPS | SSRDHSGFQVF |
| 1.81 | 3 of 3 | EGDSLCYYYAN | GKNNRPS | ESRDSSGFQVF |
| 4.62 | 3 of 3 | EGDSLRYYYAN | VKNMRPS | GSRDSSGFQVF |
| 3.37 | 1 of 3 | EGDSLRTYYRN | GKNNRPS | SSRDISGFQVF |
| 3.97 | 2 of 3 | EGDSFRYYYAG | GKNNRPS | SSRWSSGFQVF |
| not detected | 0 of 3 | EGDMLRYYYAN | GKNNRPS | SSRDSSSFQVR |
| 3.07 | 3 of 3 | ESDYLRYYYAN | GKNNRPS | SSRDSSGFQVF |
| 4.00 | 1 of 3 | EGDSLRYYYAN | HKNNRIS | SSRDSSGFQCF |
| 3.68 | 2 of 3 | EGDSLRYYYAN | GKNNRPS | SSRDYSWFWVF |
| not detected | 0 of 3 | EGDCLRYYYAN | GKNNRPS | TSRDSSGEQVF |
| 3.79 | 2 of 3 | EGDSLRYYCAN | GKNNRFP | SSRDSSGFQVF |
| 4.95 | 2 of 3 | EGDSLRYYYAQ | GKPNRPS | SSRDSSCFQVF |
| 4.90 | 1 of 3 | EGDSLREYYAQ | GKNNRPS | SRRDSSGFQVF |
| 3.34 | 2 of 3 | EGDSLRYYYAE | GKNNRPS | SSRDWSGFQVA |
| 2.45 | 3 of 3 | EGTSLRYYYAN | GKNNRPS | SSRYSSGFQVF |
| 3.05 | 3 of 3 | EGDSLRYYYAN | GKNNRPR | SSRDSSGFQVT |
| not detected | 0 of 3 | EGDSLDYYYAN | GKNNRCS | SSRDSSFFQVF |
| 3.52 | 1 of 3 | EGTSLRYYYAN | GKKNRPW | SSRDSSGFQVF |
| 2.37 | 1 of 3 | EGDSLRYYYAN | GKNNTPS | SSRDTSGIQVF |
| 3.89 | 3 of 3 | EGDSLRYPYAN | GKNNVPS | SSRDSSGFFVF |
| 0.75 | 3 of 3 | EGDSLRYEYAR | GKNNRPS | SSRDSSGFSVF |
| 2.47 | 3 of 3 | KGDSLRYYYYN | GKNNRPS | SSRDSSGFQVF |
| 1.96 | 3 of 3 | EGDSLRYNYAN | GKNNRPS | SSRDSSGFPVF |
| 2.43 | 3 of 3 | EGDSMRYYYAN | GKNNRPS | SARDSSGFQVF |
| 2.47 | 3 of 3 | EVSSLRYYYAN | GKNNRPS | SVRDSSGFQVF |
| not detected | 0 of 3 | EGDSLYYYYAL | GKNNRPS | SSRDSSGFSVF |
| 3.59 | 1 of 3 | EGDSLRYYYAN | GRNPRPS | SSRDSKGFQVF |
| 3.20 | 3 of 3 | EGDSERYYYAN | GKNNRPS | SSRVSSGFQVF |
| 3.74 | 3 of 3 | EGDSLRYYYAN | GKNRRPS | PSRDSSGFQVF |
| 3.94 | 1 of 3 | EGKSLRYYYFN | GKNNRPS | SSRDSSGFQSF |
| 1.82 | 3 of 3 | EGDSLSYYEAN | GKNNRPI | SSRDSSGFQVF |
| not detected | 0 of 3 | EKDYLRYYYAN | GKNNRPS | SSYDSSGFQVF |
| 4.27 | 2 of 3 | EGDSLRYYYAN | GKPNRPS | SSRDSPVFQVF |
| 2.74 | 3 of 3 | EGDGLRYYYAN | GKNNRPS | SSRHSAGFQVF |
| not detected | 0 of 3 | EGDSLRYYYAN | GHNNRPS | SSRWSSKFQVF |
| 3.51 | 1 of 3 | EGDSLRQYYAE | GKNNRPS | SSLDSSGFQVF |
| 4.24 | 1 of 3 | ERDSLRYYYAN | GKNNRPW | SSRDQSGFQVF |
| 3.61 | 1 of 3 | EGMSLRYYYAN | DKNNRPS | SSRDSSDFQVF |
| 5.04 | 1 of 3 | VGDSLWYYYAN | GKNNRPS | SSRPSSGFQVF |
| 3.93 | 3 of 3 | EMDSLRYYYAN | GKNIRPS | SSRESSGFQVF |
| not detected | 0 of 3 | EGDRLRYYYAN | MKNNRPS | SSRDSSWFQVF |
| 4.14 | 1 of 3 | EGDSLRYYYAN | GKHNRPS | ESRDSAGFQVF |
| 1.99 | 3 of 3 | YGDSLRYYYAN | GKNNRPN | STRDSSGFQVF |
| 3.30 | 2 of 3 | EGDSLRYFYAN | GKNNRFS | SSPDSSGFQVF |

Picked from the list: the 4 lowest averages where every replicate gave a value.

CDR-L1	CDR-L2	CDR-L3	log10 Kd (nM), mean	seen in
EGDSLRYEYAR	GKNNRPS	SSRDSSGFSVF	0.75	3 of 3
EGDSLCYYYAN	GKNNRPS	ESRDSSGFQVF	1.81	3 of 3
EGDSLSYYEAN	GKNNRPI	SSRDSSGFQVF	1.82	3 of 3
EGDSLRNYYAN	GKNNRPS	TSRDSSGFQKF	1.89	3 of 3

Values reported by Engelhart et al. 2022, doi:10.1038/s41597-022-01779-4 (FLAb copy).